Data reported in patent US9505728B2, “Triazolone compounds and uses thereof” (INCEPTION 2, INC., priority 2012, dated 2016).

The chains behind the UniProt entries cited, without tags or fusion partners.
UniProt Q07869, whole entry: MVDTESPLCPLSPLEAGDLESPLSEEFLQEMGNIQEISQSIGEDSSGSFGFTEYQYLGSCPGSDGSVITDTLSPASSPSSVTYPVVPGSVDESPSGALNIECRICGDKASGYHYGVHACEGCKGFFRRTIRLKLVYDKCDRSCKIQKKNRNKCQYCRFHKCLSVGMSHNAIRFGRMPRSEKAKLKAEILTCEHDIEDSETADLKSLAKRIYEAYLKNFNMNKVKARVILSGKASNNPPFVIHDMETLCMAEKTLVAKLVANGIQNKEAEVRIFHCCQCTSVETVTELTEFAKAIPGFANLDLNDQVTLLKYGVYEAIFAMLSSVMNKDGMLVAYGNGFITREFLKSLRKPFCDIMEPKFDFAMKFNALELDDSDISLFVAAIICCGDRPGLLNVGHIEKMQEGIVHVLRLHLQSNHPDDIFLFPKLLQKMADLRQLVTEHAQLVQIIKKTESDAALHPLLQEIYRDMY

Molecular target: Human PPARα (Homo sapiens, UniProt Q07869)
Assay: Human PPARα Reporter Assay (luciferase)
Settings: read-out: Luciferase IC50; human PPARα reporter cells, overnight incubation, antagonism

SMILES: CCn1c(CCCc2ccc(-c3cc(NS(C)(=O)=O)ccn3)cc2)nn(Cc2ccc(C(C)(C)C)cc2)c1=O [Example 40, 1-{[4-(tert-Butyl)phenyl]methyl}-4-ethyl-3-[3-(4-{4-[(methylsulfonyl)amino](2-pyridyl)}phenyl)propyl]-1,2,4-triazolin-5-one]
- IC50: 407 nM
